ChEMBL document CHEMBL1129998, “Pharmacological options in the treatment of benign prostatic hyperplasia” (J Med Chem, 1997)

The chains behind the UniProt entries cited, without tags or fusion partners.
UniProt P25100, whole entry: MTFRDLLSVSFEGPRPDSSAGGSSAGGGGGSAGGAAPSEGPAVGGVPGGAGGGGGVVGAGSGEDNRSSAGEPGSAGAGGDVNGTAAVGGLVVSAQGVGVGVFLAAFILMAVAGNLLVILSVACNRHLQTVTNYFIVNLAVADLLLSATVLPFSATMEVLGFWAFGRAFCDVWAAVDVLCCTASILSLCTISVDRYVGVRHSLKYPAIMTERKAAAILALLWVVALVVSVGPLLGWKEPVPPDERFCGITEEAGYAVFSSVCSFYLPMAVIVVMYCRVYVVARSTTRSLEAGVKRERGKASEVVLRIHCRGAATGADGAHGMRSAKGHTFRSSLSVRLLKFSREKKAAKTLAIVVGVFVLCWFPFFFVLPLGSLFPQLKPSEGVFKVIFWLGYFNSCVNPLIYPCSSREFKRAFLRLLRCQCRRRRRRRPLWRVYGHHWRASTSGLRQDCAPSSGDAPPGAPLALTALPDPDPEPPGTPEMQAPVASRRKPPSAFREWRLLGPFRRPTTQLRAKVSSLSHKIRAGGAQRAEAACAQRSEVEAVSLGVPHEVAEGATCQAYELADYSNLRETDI
UniProt P35368, whole entry: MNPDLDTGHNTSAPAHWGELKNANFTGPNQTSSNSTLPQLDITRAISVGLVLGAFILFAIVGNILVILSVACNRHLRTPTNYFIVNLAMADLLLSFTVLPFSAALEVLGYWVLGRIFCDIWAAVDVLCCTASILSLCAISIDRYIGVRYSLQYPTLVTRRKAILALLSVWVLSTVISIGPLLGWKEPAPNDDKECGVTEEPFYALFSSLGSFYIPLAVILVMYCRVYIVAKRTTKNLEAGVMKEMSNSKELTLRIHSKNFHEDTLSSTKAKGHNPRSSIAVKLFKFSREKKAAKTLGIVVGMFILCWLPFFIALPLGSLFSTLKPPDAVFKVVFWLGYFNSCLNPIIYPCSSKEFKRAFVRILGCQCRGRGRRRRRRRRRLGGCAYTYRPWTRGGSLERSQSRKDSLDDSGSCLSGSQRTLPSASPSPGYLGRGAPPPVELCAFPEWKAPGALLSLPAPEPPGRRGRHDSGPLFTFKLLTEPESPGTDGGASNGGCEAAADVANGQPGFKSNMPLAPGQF

Key:
[1] = target: Adrenergic receptor alpha-1 (Homo sapiens, UniProt P35348+P25100+P35368); test: pA2 for Alpha-1 adrenergic receptor from human prostate.; format: tissue-based, Prostate gland
[2] = target: T1, Alpha-1A adrenergic receptor (Homo sapiens, UniProt P35348); test: Binding affinity was tested on human Alpha-1A adrenergic receptor
T1 sequence (P35348 whole entry): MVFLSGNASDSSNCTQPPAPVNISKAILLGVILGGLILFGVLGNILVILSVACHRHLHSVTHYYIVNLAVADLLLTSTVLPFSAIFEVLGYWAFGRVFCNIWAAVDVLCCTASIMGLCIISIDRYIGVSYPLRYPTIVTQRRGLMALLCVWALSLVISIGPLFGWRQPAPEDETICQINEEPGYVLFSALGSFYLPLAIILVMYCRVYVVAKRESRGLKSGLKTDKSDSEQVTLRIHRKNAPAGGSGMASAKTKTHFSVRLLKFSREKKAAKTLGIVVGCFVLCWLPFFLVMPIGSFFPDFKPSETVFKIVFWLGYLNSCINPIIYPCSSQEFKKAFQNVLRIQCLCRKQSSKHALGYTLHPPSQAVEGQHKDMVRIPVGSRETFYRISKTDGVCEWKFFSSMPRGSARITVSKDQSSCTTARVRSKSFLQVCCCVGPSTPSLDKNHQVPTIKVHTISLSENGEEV

[3] = target: Alpha-1D adrenergic receptor (Homo sapiens, UniProt P25100); test: Binding affinity was tested on human Alpha-1D adrenergic receptor
[4] = target: Alpha-1B adrenergic receptor (Homo sapiens, UniProt P35368); test: Binding affinity was tested on human Alpha-1B adrenergic receptor

pA2 [1]	Ki [2] [nM]	Ki [3] [nM]	Ki [4] [nM]	SMILES
8.8	1	2.51	–	COc1ccccc1N1CCN(CCCNC(=O)c2cccc3c(=O)c(C)c(-c4ccccc4)oc23)CC1 [UPIDOSIN]
–	–	–	1	COc1cc2nc(N3CCN(C(=O)C4COc5ccccc5O4)CC3)nc(N)c2cc1OC (centres undefined) [DOXAZOSIN]
